Earlier results as cited in US7422793B2, “Non-toxic corrosion-protection rinses and seals based on rare earth elements” (University of Dayton, priority 2002, dated 2008).

Conditions: pH 7; cited from earlier work

Compound | Solubility in Water [mol/L]
Rubidium fluorogermanate | 0.017
F[B-](F)(F)F.[Cs+] [Cesium tetrafluoroborate] | 0.5
F[Si-2](F)(F)(F)(F)F.[Cs+].[Cs+] [Cesium hexafluorosilicate] | 0.023
F[Si-2](F)(F)(F)(F)F.[Sr+2] [Strontium hexafluorosilicate] | 0.11
Rubidium tetrafluoroborate | 0.1
